Assay results as given in BindingDB's records for 10669567.

Sequences of proteins named here, by UniProt entry; tags and fusion partners are left off.
UniProt Q02293, whole entry, looked up: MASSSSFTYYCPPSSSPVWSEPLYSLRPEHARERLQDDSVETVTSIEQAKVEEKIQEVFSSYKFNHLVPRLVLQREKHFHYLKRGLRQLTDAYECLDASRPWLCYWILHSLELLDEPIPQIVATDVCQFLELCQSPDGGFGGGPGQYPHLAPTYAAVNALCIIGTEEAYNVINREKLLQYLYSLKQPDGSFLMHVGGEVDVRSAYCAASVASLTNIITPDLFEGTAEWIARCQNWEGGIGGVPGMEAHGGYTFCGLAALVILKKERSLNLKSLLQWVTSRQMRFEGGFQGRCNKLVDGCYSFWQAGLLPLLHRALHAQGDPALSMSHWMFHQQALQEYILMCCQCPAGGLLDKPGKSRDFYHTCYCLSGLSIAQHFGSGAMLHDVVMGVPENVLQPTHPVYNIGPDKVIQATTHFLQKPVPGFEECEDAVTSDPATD

Biological target: Protein farnesyltransferase subunit beta/geranylgeranyltransferase type-1 subunit alpha (Rattus norvegicus, UniProt Q04631+Q02293)
Experiment: In vitro inhibition of Farnesyltransferase (FT) by using FT [3H]-SPA kit.

## O=C(NNc1ccc([N+](=O)[O-])cc1[N+](=O)[O-])c1cc([N+](=O)[O-])cc2c1-c1ccc([N+](=O)[O-])cc1C2=O
  IC50: 110 µM
